“And” between values parts separate entries of the source, which are not always exact repeats. Identical values can stand only once. Like-named read-outs stand apart in the source and are kept apart here.
What was measured:
Plasma protein = conditions: 15 minute plasma samples, ultrafiltration
[1] = not given; remark: listed apart in the source
MC26 colon cancer = conditions: mice loaded with non-radioactive D-glucose
MC26 colon carcinoma = conditions: for Muscle uptake: contralateral thigh; for Muscle uptake / Heart uptake / Kidneys uptake / Liver uptake / Lungs uptake / Stomach uptake / Thyroid uptake / Tumor uptake: mean and SD, n = 5
[2] = system: MX-1 human breast tumor xenografts; experiment: Autoradiographic biodistribution of Tc-99m-TG and C14-DG in nude mice bearing MX-1 tumors; format: in vivo; conditions: in words
Procedure: In order to better understand the pattern of Tc-99m-TG localization in tumors, autoradiographic biodistribution of Tc-99m-TG was compared to C^14 -DG in nude mice (18-20 g) bearing MX-1 human breast tumor xeno-grafts. 3 mCi (111 MBq) of Tc-99m-5TG and 5 μCi (185 kBq) of C^14 -DG were injected at the same time into the tail vein of the mice. Autoradiogram sections including the tumors and vital organs of the mice were obtained at 20 minutes, 1 hour, and 3 hours post injection and developed using simultaneous Tc-99m and C^14 exposures of the same sections.

[3] = i.v. 20 μCi/kg, biexponential model

technetium-99m (Tc-99m)-labeled 5-thio-D-glucose [Tc-99m-TG]
Urinary excretion (1 hour post-injection, i.v.): 53±5% | Plasma clearance [3]: 14.5 ± 2 mL/min | Renal clearance [3]: 11.3 ± 3 mL/min | Accumulation in the kidneys (rabbits, in words): early and persistent accumulation in the kidneys | Extra-renal (hepatobiliary) excretion (rabbits, in words): minor | Protein binding (Plasma protein): 32±0.2% | Labeling efficiency ([1]; 30 minute incubation at room temperature): 98.5±0.8% | Stability of complex ([1]; in words): high stability | Decrease of tumor uptake (by a factor of) (MC26 colon cancer): two | Concentrations in the blood and body background (MC26 colon cancer; in words): increased concentrations | Muscle uptake (MC26 colon carcinoma; 1 hour): 0.6 ± 0.1 % ID/g | Heart uptake (MC26 colon carcinoma; 1 hour): 0.17 ± 0.03 % ID/organ | Kidneys uptake (MC26 colon carcinoma; 1 hour): 2.62±0.24 % ID/organ | Liver uptake (MC26 colon carcinoma; 1 hour): 2.54±0.37 % ID/organ | Lungs uptake (MC26 colon carcinoma; 1 hour): 0.41 ± 0.02 % ID/organ | Stomach uptake (MC26 colon carcinoma; 1 hour): 0.46±0.13 % ID/organ | Thyroid uptake (MC26 colon carcinoma; 1 hour): 0.17±0.06 % ID/organ | Tumor uptake (MC26 colon carcinoma; 1 hour, 60 min): 1.6±0.3 % ID/g | Muscle uptake (MC26 colon carcinoma; 2 hours): 0.5 ± 0.1 % ID/g | Heart uptake (MC26 colon carcinoma; 2 hours): 0.12 ± 0.01 % ID/organ | Kidneys uptake (MC26 colon carcinoma; 2 hours): 2.43 ± 0.20 % ID/organ | Liver uptake (MC26 colon carcinoma; 2 hours): 2.33 ± 0.17 % ID/organ | Lungs uptake (MC26 colon carcinoma; 2 hours): 0.34 ± 0.02 % ID/organ | Tumor uptake (MC26 colon carcinoma; 2 hours, 120 min): 1.3±0.03 % ID/g and 1.4 ± 0.1 % ID/g | Stomach uptake (MC26 colon carcinoma; 3 hours (text: over time)): 0.2±0.05 % ID/organ | Thyroid uptake (MC26 colon carcinoma; 3 hours (text: over time)): 0.05±0.02 % ID/organ | Muscle uptake (MC26 colon carcinoma; 3 hours): 0.3 ± 0.1 % ID/g | Heart uptake (MC26 colon carcinoma; 3 hours): 0.13 ± 0.03 % ID/organ | Kidneys uptake (MC26 colon carcinoma; 3 hours): 2.95 ± 0.49 % ID/organ | Liver uptake (MC26 colon carcinoma; 3 hours): 1.88 ± 0.77 % ID/organ | Lungs uptake (MC26 colon carcinoma; 3 hours): 0.29 ± 0.07 % ID/organ | Tumor uptake (MC26 colon carcinoma; 3 hours, 180 min): 1.2±0.3 % ID/g | Tumor uptake preference (MC26 colon carcinoma; in words): preferentially taken up by tumor tissue | In vivo stability (breakdown to Tc-99m-pertechnetate) (MC26 colon carcinoma; inferred from thyroid and stomach uptake, in words): highly stable in vivo, exhibiting minimal or no breakdown to Tc-99m-pertechnetate | Tumor localization compared to C14-DG ([2]; MX-1, 20 minutes, 1 hour, 3 hours): greater and more persistent tumor localization | Distribution within tumor ([2]; MX-1, center of the tumors): concentrated at the center of the tumors

Source: patent US6099822A, “Imaging methods and compositions” (priority 1998, dated 2000)
